From the supplement of paper PMC10307832

How the values were obtained:
Experiment in all cases: relative viability (nuclei count vs DMSO), 5 days (fraction); higher = more cells survive
XMD8-85 + Luminespib = compound: CN1CCN(CC1)C2=CC(=C(C=C2)NC3=NC=C4C(=N3)N(C5=CC=CC=C5C(=O)N4C)C)OC [XMD8-85] + CCNC(=O)c1noc(-c2cc(C(C)C)c(O)cc2O)c1-c1ccc(CN2CCOCC2)cc1 [Luminespib] (partner 0.01 µM); details: first compound 2.53 µM
Method in brief: (§1)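 Lung cancer cell lines in 1536-well plates were dosed by pin tool the day after seeding, either with one drug alone or with a fixed anchor-drug dose plus five library-drug doses (not always all listed) in √10 steps. After 5 days, cells were fixed and their nuclei stained in one step (final 0.05% Triton X-100, 1% formaldehyde, 1 ug/ml Hoechst), then counted on 4× images. Relative viability is the nuclei count in treated wells divided by that in vehicle wells. Values are medians of duplicate plates.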

XMD8-85 + OSI-027 = compound: CN1CCN(CC1)C2=CC(=C(C=C2)NC3=NC=C4C(=N3)N(C5=CC=CC=C5C(=O)N4C)C)OC [XMD8-85] + COc1cccc2cc(-c3nc([C@H]4CC[C@H](C(=O)O)CC4)n4ncnc(N)c34)[nH]c12 [OSI-027] (partner 0.5 µM)
Method in brief: as §1

XMD8-85 + Crizotinib = compound: CN1CCN(CC1)C2=CC(=C(C=C2)NC3=NC=C4C(=N3)N(C5=CC=CC=C5C(=O)N4C)C)OC [XMD8-85] + C[C@@H](Oc1cc(-c2cnn(C3CCNCC3)c2)cnc1N)c1c(Cl)ccc(F)c1Cl [Crizotinib] (partner 1 µM)
Method in brief: as §1

XMD8-85 + Alpelisib = compound: CN1CCN(CC1)C2=CC(=C(C=C2)NC3=NC=C4C(=N3)N(C5=CC=CC=C5C(=O)N4C)C)OC [XMD8-85] + Cc1nc(NC(=O)N2CCC[C@H]2C(N)=O)sc1-c1ccnc(C(C)(C)C(F)(F)F)c1 [Alpelisib] (partner 2 µM)
Method in brief: as §1

XMD8-85 + Olaparib = compound: CN1CCN(CC1)C2=CC(=C(C=C2)NC3=NC=C4C(=N3)N(C5=CC=CC=C5C(=O)N4C)C)OC [XMD8-85] + O=C(c1cc(Cc2n[nH]c(=O)c3ccccc23)ccc1F)N1CCN(C(=O)C2CC2)CC1 [Olaparib] (partner 8 µM)
Method in brief: as §1

XMD8-85 + Decitabine = compound: CN1CCN(CC1)C2=CC(=C(C=C2)NC3=NC=C4C(=N3)N(C5=CC=CC=C5C(=O)N4C)C)OC [XMD8-85] + Nc1ncn([C@H]2C[C@H](O)[C@@H](CO)O2)c(=O)n1 [Decitabine] (partner 2 µM)
Method in brief: as §1

XMD8-85 + Vorinostat = compound: CN1CCN(CC1)C2=CC(=C(C=C2)NC3=NC=C4C(=N3)N(C5=CC=CC=C5C(=O)N4C)C)OC [XMD8-85] + O=C(CCCCCCC(=O)Nc1ccccc1)NO [Vorinostat] (partner 1 µM)
Method in brief: as §1

XMD8-85 + Pictilisib = compound: CN1CCN(CC1)C2=CC(=C(C=C2)NC3=NC=C4C(=N3)N(C5=CC=CC=C5C(=O)N4C)C)OC [XMD8-85] + CS(=O)(=O)N1CCN(Cc2cc3nc(-c4cccc5[nH]ncc45)nc(N4CCOCC4)c3s2)CC1 [Pictilisib] (partner 1 µM)
Method in brief: as §1

XMD8-85 + Lapatinib = compound: CN1CCN(CC1)C2=CC(=C(C=C2)NC3=NC=C4C(=N3)N(C5=CC=CC=C5C(=O)N4C)C)OC [XMD8-85] + CS(=O)(=O)CCNCc1ccc(-c2ccc3ncnc(Nc4ccc(OCc5cccc(F)c5)c(Cl)c4)c3c2)o1 [Lapatinib] (partner 2 µM)
Method in brief: as §1

XMD8-85 + AZD7762 = compound: CN1CCN(CC1)C2=CC(=C(C=C2)NC3=NC=C4C(=N3)N(C5=CC=CC=C5C(=O)N4C)C)OC [XMD8-85] + NC(=O)Nc1cc(-c2cccc(F)c2)sc1C(=O)N[C@H]1CCCNC1 [AZD7762] (partner 0.2 µM)
Method in brief: as §1

XMD8-85 + Pemetrexed = compound: CN1CCN(CC1)C2=CC(=C(C=C2)NC3=NC=C4C(=N3)N(C5=CC=CC=C5C(=O)N4C)C)OC [XMD8-85] + Nc1nc2[nH]cc(CCc3ccc(C(=O)N[C@@H](CCC(=O)O)C(=O)O)cc3)c2c(=O)[nH]1 [Pemetrexed] (partner 0.2 µM)
Method in brief: as §1

XMD8-85 + Dasatinib = compound: CN1CCN(CC1)C2=CC(=C(C=C2)NC3=NC=C4C(=N3)N(C5=CC=CC=C5C(=O)N4C)C)OC [XMD8-85] + Cc1nc(Nc2ncc(C(=O)Nc3c(C)cccc3Cl)s2)cc(N2CCN(CCO)CC2)n1 [Dasatinib] (partner 0.075 µM)
Method in brief: as §1

XMD8-85 + Phenformin = compound: CN1CCN(CC1)C2=CC(=C(C=C2)NC3=NC=C4C(=N3)N(C5=CC=CC=C5C(=O)N4C)C)OC [XMD8-85] + N=C(N)NC(=N)NCCc1ccccc1 [Phenformin] (partner 250 µM)
Method in brief: as §1

XMD8-85 + Palbociclib = compound: CN1CCN(CC1)C2=CC(=C(C=C2)NC3=NC=C4C(=N3)N(C5=CC=CC=C5C(=O)N4C)C)OC [XMD8-85] + CC(=O)c1c(C)c2cnc(Nc3ccc(N4CCNCC4)cn3)nc2n(C2CCCC2)c1=O [Palbociclib] (partner 0.5 µM); details: first compound 0.253 µM
Method in brief: as §1

XMD8-85 + Linsitinib = compound: CN1CCN(CC1)C2=CC(=C(C=C2)NC3=NC=C4C(=N3)N(C5=CC=CC=C5C(=O)N4C)C)OC [XMD8-85] + C[C@]1(O)C[C@@H](c2nc(-c3ccc4ccc(-c5ccccc5)nc4c3)c3c(N)nccn32)C1 [Linsitinib] (partner 1 µM)
Method in brief: as §1

XMD8-85 + Navitoclax = compound: CN1CCN(CC1)C2=CC(=C(C=C2)NC3=NC=C4C(=N3)N(C5=CC=CC=C5C(=O)N4C)C)OC [XMD8-85] + CC1(C)CCC(c2ccc(Cl)cc2)=C(CN2CCN(c3ccc(C(=O)NS(=O)(=O)c4ccc(N[C@H](CCN5CCOCC5)CSc5ccccc5)c(S(=O)(=O)C(F)(F)F)c4)cc3)CC2)C1 [Navitoclax] (partner 0.5 µM); details: first compound 0.8 µM
Method in brief: as §1

XMD8-85 + Bortezomib = compound: CN1CCN(CC1)C2=CC(=C(C=C2)NC3=NC=C4C(=N3)N(C5=CC=CC=C5C(=O)N4C)C)OC [XMD8-85] + CC(C)C[C@H](NC(=O)[C@H](Cc1ccccc1)NC(=O)c1cnccn1)B(O)O [Bortezomib] (partner 0.002 µM)
Method in brief: as §1

COR-L 105 gave a relative viability (XMD8-85 + Luminespib) of 0.492, a relative viability (XMD8-85 + OSI-027; first compound 0.253 µM) of 0.565 and a relative viability (XMD8-85 + Crizotinib; first compound 0.08 µM) of 0.782. It also gave a relative viability (XMD8-85 + Alpelisib; first compound 0.08 µM) of 1.09, a relative viability (XMD8-85 + Olaparib; first compound 0.253 µM) of 0.805 and a relative viability (XMD8-85 + Decitabine; first compound 0.08 µM) of 0.712.
Work on COR-L23 yielded a relative viability (XMD8-85 + Luminespib) of 0.634 and a relative viability (XMD8-85 + OSI-027; first compound 0.253 µM) of 0.819.
For SK-LU-1, the relative viability (XMD8-85 + Vorinostat; first compound 0.08 µM) was 0.761, the relative viability (XMD8-85 + Vorinostat; first compound 0.253 µM) was 0.762 and the relative viability (XMD8-85 + Pictilisib; first compound 0.253 µM) was 0.688. For the same cell line, the relative viability (XMD8-85 + OSI-027; first compound 0.8 µM) was 0.392 and the relative viability (XMD8-85 + Olaparib; first compound 0.8 µM) was 0.435.
CAL-12T showed a relative viability (XMD8-85 + Lapatinib; first compound 0.253 µM) of 0.719 and a relative viability (XMD8-85 + AZD7762; first compound 2.53 µM) of 0.622.
NCI-H2009 showed a relative viability (XMD8-85 + Vorinostat; first compound 0.8 µM) of 0.712 and a relative viability (XMD8-85 + Vorinostat; first compound 8 µM) of 0.524.
Work on NCI-H1755 yielded a relative viability (XMD8-85 + OSI-027; first compound 2.53 µM) of 0.785.
With NCI-H1648 the relative viability (XMD8-85 + Pemetrexed; first compound 0.08 µM) was 0.712.
Work on RERF-LC-KJ yielded a relative viability (XMD8-85 + Decitabine; first compound 0.08 µM) of 0.718.
LCLC-97TM1 was tested, and the relative viability (XMD8-85 + Dasatinib; first compound 0.08 µM) was 0.842 and the relative viability (XMD8-85 + OSI-027; first compound 0.253 µM) was 0.396.
Work on NCI-H2170 yielded a relative viability (XMD8-85 + OSI-027; first compound 2.53 µM) of 0.868 and a relative viability (XMD8-85 + Alpelisib; first compound 0.8 µM) of 0.848.
LXF-289 showed a relative viability (XMD8-85 + Luminespib) of 0.663, a relative viability (XMD8-85 + Pictilisib; first compound 0.253 µM) of 0.661 and a relative viability (XMD8-85 + Phenformin; first compound 8 µM) of 0.483.
With NCI-H2405 the relative viability (XMD8-85 + Palbociclib) was 0.527 and the relative viability (XMD8-85 + Linsitinib; first compound 0.08 µM) was 0.991.
Cell Line EKVX has a relative viability (XMD8-85 + OSI-027; first compound 8 µM) of 0.688 and a relative viability (XMD8-85 + Pemetrexed; first compound 2.53 µM) of 0.386.
NCI-H1651 showed a relative viability (XMD8-85 + AZD7762; first compound 2.53 µM) of 0.503.
HCC-366 gave a relative viability (XMD8-85 + Crizotinib; first compound 0.253 µM) of 0.511, a relative viability (XMD8-85 + Olaparib; first compound 2.53 µM) of 0.343 and a relative viability (XMD8-85 + Linsitinib; first compound 2.53 µM) of 0.616.
NCI-H2347 gave a relative viability (XMD8-85 + Phenformin; first compound 8 µM) of 0.392, a relative viability (XMD8-85 + AZD7762; first compound 0.253 µM) of 0.899 and a relative viability (XMD8-85 + AZD7762; first compound 2.53 µM) of 0.761. The relative viability (XMD8-85 + Navitoclax) was 0.777 and the relative viability (XMD8-85 + Decitabine; first compound 2.53 µM) was 0.646.
NCI-H322M was tested, and the relative viability (XMD8-85 + OSI-027; first compound 0.253 µM) was 0.547, the relative viability (XMD8-85 + Phenformin; first compound 0.253 µM) was 0.727 and the relative viability (XMD8-85 + Alpelisib; first compound 0.253 µM) was 0.727.
Work on NCI-H2085 yielded a relative viability (XMD8-85 + Bortezomib; first compound 8 µM) of 0.753.
NCI-H358 was tested, and the relative viability (XMD8-85 + Vorinostat; first compound 0.08 µM) was 0.654 and the relative viability (XMD8-85 + Linsitinib; first compound 0.8 µM) was 0.743.
H3255 was tested, and the relative viability (XMD8-85 + Pictilisib; first compound 0.8 µM) was 0.589, the relative viability (XMD8-85 + Phenformin; first compound 8 µM) was 0.326 and the relative viability (XMD8-85 + Bortezomib; first compound 0.8 µM) was 0.753. The relative viability (XMD8-85 + Pemetrexed; first compound 0.253 µM) was 0.567.
NCI-H661 showed a relative viability (XMD8-85 + Lapatinib; first compound 2.53 µM) of 0.564, a relative viability (XMD8-85 + Palbociclib) of 0.423 and a relative viability (XMD8-85 + Alpelisib; first compound 0.08 µM) of 0.606. The relative viability (XMD8-85 + Bortezomib; first compound 0.8 µM) was 0.834.
ChaGo-K-1 showed a relative viability (XMD8-85 + Dasatinib; first compound 0.253 µM) of 0.621, a relative viability (XMD8-85 + Crizotinib; first compound 8 µM) of 0.654 and a relative viability (XMD8-85 + Phenformin; first compound 8 µM) of 0.356.
With Calu-6 the relative viability (XMD8-85 + Crizotinib; first compound 2.53 µM) was 0.756.
For HCC-15, the relative viability (XMD8-85 + OSI-027; first compound 2.53 µM) was 0.712.
PC-3 [JPC-3] gave a relative viability (XMD8-85 + AZD7762; first compound 0.08 µM) of 0.703, a relative viability (XMD8-85 + Decitabine; first compound 0.253 µM) of 0.811 and a relative viability (XMD8-85 + Linsitinib; first compound 8 µM) of 0.988.
For NCI-H1703, the relative viability (XMD8-85 + Olaparib; first compound 0.253 µM) was 0.386 and the relative viability (XMD8-85 + Linsitinib; first compound 0.8 µM) was 0.826.
